Measured affinities in a library of Ab-91 heavy chain variants

The target is the same throughout: PDVDLGDISGINAS, from the HR2 region of SARS-CoV-2 spike.

Each scFv is VL, the linker GGGGSGGGGSGGGGS, VH, as in the parent Ab-91, and differs from it in the CDRs of the heavy chain only.
VL: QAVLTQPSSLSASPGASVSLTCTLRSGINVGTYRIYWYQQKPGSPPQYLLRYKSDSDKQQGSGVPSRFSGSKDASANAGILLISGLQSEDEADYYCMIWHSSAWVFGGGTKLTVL
VH: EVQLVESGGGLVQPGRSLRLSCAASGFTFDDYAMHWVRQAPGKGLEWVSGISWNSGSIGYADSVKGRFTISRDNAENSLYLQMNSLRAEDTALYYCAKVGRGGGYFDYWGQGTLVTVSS

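The library (AAYL51) carries one to three amino acid substitutions per variant, with no insertions or deletions. Affinity was read by AlphaSeq, a pooled yeast mating assay with surface-displayed partners. Binding brings cells together so that they mate, and sequencing counts the barcode pairs among the diploids. Each replicate has its own calibration line, from reference interactions of the BCL2 family. Each pool was mated in three replicate cultures.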

Substitutions are numbered in sequence along the VH above, starting at 1 (not Kabat). This list gathers variants with a substitution at G100 (VH, numbered from residue 1). Kd is apparent (estimated from mating counts) and averaged on the log scale over replicates with a signal. Smaller is tighter. An entry "no signal" has no value in the source: the pair was not observed among the diploids in any replicate. This suggests poor binding but is not conclusive. Empty control strains, which show no peptide, gave a signal in 21% of pairings with library AAYL51; the median was 34 µM and 95% of these signals were weaker than 1.8 µM. No background was subtracted. For reference, the parent read 72 nM as the reference entry and 7.5 nM as a member of this library.

For I58N/K65T/G100N, the assay gave 31 µM (2 of 3 replicates). For G59C/D62K/G100I, the assay gave 230 µM (2 of 3 replicates). The variant G50P/V64T/G100F gave no signal (0 of 3 replicates). The variant F29I/G100L/R101F showed 140 µM (2 of 3 replicates). The variant G26T/H35S/G100H showed 26 µM (1 of 3 replicates). The variant I51A/V99N/G100P showed no signal (0 of 3 replicates).

The variant G59S/D62K/G100W showed no signal (0 of 3 replicates). With G100R/R101N/Y105V the result was 110 µM (1 of 3 replicates). The variant G100Q/G102H gave 36 µM (3 of 3 replicates). The variant G50V/G100L showed no signal (0 of 3 replicates). The variant S52D/N54T/G100Y showed no signal (0 of 3 replicates). The variant A33Q/A61D/G100Q showed 13 µM (2 of 3 replicates).

The variant I51C/S63C/G100K showed 10 µM (1 of 3 replicates). With H35N/G100I/Y108T the result was 100 µM (3 of 3 replicates). With F29S/G100W/G102V the result was 48 µM (2 of 3 replicates). The variant G100V/G103T gave 800 µM (3 of 3 replicates). With S55P/I58M/G100V the result was no signal (0 of 3 replicates). With G100Y the result was 41 nM (3 of 3 replicates).

The variant I58Q/G100I/R101Y showed 79 µM (2 of 3 replicates). With M34K/K65R/G100C the result was no signal (0 of 3 replicates). The variant S57T/G100F gave 4.9 µM (1 of 3 replicates). The variant K65W/V99I/G100H showed 7.0 µM (2 of 3 replicates). For G26C/G100Q, the assay gave 13 µM (1 of 3 replicates). With S52Y/S55E/G100L the result was no signal (0 of 3 replicates).

The variant D30M/G100I/R101M showed 91 µM (1 of 3 replicates). With F27A/T28R/G100V the result was no signal (0 of 3 replicates). The variant Y32T/S57R/G100N gave no signal (0 of 3 replicates). The variant D31M/G100F showed 2.9 nM (3 of 3 replicates). With F29I/W53P/G100F the result was 20 nM (3 of 3 replicates). The variant F27W/G100A/G102P showed 64 µM (1 of 3 replicates).

For S57M/I58G/G100E, the assay gave no signal (0 of 3 replicates). The variant G26E/G100D gave 87 µM (1 of 3 replicates). With G26D/G56S/G100P the result was 3.4 µM (1 of 3 replicates). With Y32F/K65E/G100E the result was 2.9 nM (3 of 3 replicates). For D30G/V64M/G100R, the assay gave no signal (0 of 3 replicates). The variant S55P/G100W/F106A gave no signal (0 of 3 replicates).

The variant Y60L/G100T/G102C gave 2.2 mM (1 of 3 replicates). For H35S/G100Q/R101K, the assay gave no signal (0 of 3 replicates).

For reference, 2 entries of the list once more:

changes,Kd,replicates with signal
G50V/G100L,no signal,0 of 3
I51A/V99N/G100P,no signal,0 of 3

Source: Engelhart et al. 2022 (doi:10.1038/s41597-022-01779-4), MIT Lincoln Laboratory and A-Alpha Bio; data file from the FLAb repository.